In patent US8829242B2, “Amide derivatives of valproic acid and uses thereof” (dated 2014):

Experiments:
tactile allodynia [1] = conditions: cited from earlier work; for potency as anti-neuropathic pain compounds compared to VPA: relative to VPA
seizures = conditions: relative to VPA; cited from earlier work
[2] = test system: pilocarpine-induced status; test: Pilocarpine-induced status epilepticus test; conditions: for Deaths: pilocarpine test
soman-induced seizures = test: Soman-induced seizure rat protocol (EEG)
[3] = test system: electrographic status epilepticus; test: Benzodiazepine-resistant electrographic status epilepticus (ESE) rat model; conditions: 130 mg/kg
tactile allodynia [4] = test: Spinal nerve ligation (SNL, Chung) model of neuropathic pain, tactile allodynia; conditions: rat, i.p., ED50 with 95% confidence interval
[5] = rats, given 0.5 h (30 min) after pilocarpine status

CC(C)C(C(N)=O)C(C)C
potency as anti-neuropathic pain compounds compared to VPA (tactile allodynia [1]): 4 times | potency as anticonvulsants compared to VPA (seizures): 10 times

CCC(C)C(CC)C(N)=O (centres unmarked)
potency as anti-neuropathic pain compounds compared to VPA (tactile allodynia [1]): 4 times | potency as anticonvulsants compared to VPA (seizures): 10 times

CCCC(C(N)=O)C(C)C (centres unmarked)
potency as anti-neuropathic pain compounds compared to VPA (tactile allodynia [1]): 4 times | potency as anticonvulsants compared to VPA (seizures): 10 times

CCCC(CCC)C(N)=O
potency as anti-neuropathic pain compounds compared to VPA (tactile allodynia [1]): 4 times | potency as anticonvulsants compared to VPA (seizures): 10 times

NCC1(CC(=O)O)CCCCC1
ED50, neuropathic pain (SNL) (tactile allodynia [1]; reference drug): 32 mg/kg

CCCC(C(N)=O)C(C)CC (racemic)
anticonvulsant activity in rat pilocarpine-induced status model ([2]; rat): potent anticonvulsant activity | ED50 mg/kg (95% CI), Pilocarpine Test [2, 5]: 84 mg/kg | ED97 mg/kg (95% CI), Pilocarpine Test [2, 5]: 149 mg/kg and 149 (114-393) mg/kg | Deaths ([2]; rats, 65 mg/kg, time 0.0 h): 0 | Deaths ([2]; rats, 130 mg/kg, time 0.5 h): 0 | duration of activity ([2]; stated after Table 3): active for prolonged periods of time | next day (seizure, per animal) (soman-induced seizures; 145 mg/kg IP, 40 min after seizure onset, second dose 145 mg/kg at end of day if seizure terminated, individual animals): seizing | protection against soman-induced seizures (soman-induced seizures; 100-174 mg/kg, administered 20 min and 40 min post-seizure onset, for 4-8 hr after nerve gas): protected against soman-induced seizures | rat overall mortality in ESE model [3]: without affecting the rat overall mortality | effect in benzodiazepine-resistant ESE rat model ([3]; 1 h and 3 h after dosing, administered 30 min and 45 min after first motor seizure): acute suppressive effect | SNL (ED50 mg/kg) (tactile allodynia [4]): 49 (9-61) mg/kg

Values joined by “and” are separate entries in the source; they are usually repeats but may differ in a detail not shown here. Identical values can stand only once.
